Some of the results follow. Active and inactive are the calls of the source.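 The calls were made as follows: active = activation factor of 2 or more at 20 µM, relative to plate controls; inactive = the rest.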

Amino acid sequences for entries named in this document (tags omitted).
UniProt P34949, whole entry: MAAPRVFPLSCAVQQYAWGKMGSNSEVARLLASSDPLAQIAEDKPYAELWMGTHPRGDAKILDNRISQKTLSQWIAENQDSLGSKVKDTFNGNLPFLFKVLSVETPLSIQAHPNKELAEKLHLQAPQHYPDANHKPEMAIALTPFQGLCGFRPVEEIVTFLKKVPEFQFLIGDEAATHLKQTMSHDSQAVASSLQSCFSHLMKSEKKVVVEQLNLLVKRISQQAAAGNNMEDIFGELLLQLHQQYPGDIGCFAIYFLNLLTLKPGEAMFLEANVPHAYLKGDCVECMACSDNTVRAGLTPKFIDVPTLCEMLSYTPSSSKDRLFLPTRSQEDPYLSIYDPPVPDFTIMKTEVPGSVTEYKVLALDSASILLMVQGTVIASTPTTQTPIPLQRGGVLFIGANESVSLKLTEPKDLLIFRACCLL

The assay addresses Mannose-6-phosphate isomerase (Homo sapiens) (UniProt P34949). Nature of the assay: activators of human PMI, primary screen, biochemical, fluorescence intensity, near-Km mannose 6-phosphate (AID 1214). To be noted: purified human PMI, coupled resazurin fluorescence, 20 min, at 20 µM; active compounds read high, 1 = vehicle control, 0 substrate-free wells. (In general: Alamar Blue is a resazurin reagent that responds to reducing activity.)
Consider `COC(=O)c1cc2c(s1)N=C(c1ccccc1)N(C)P2(=O)N1CCOCC1` (stereo not given), for which the activation factor result is “inactive”.
Regarding `COc1ccc(OP(C)(=O)Nc2ccccc2Br)cc1` (stereo not given), the activation factor result was “inactive”.
As to `COc1ccccc1OP(C)(=O)Nc1ccc(C)c(C)c1` (stereo not given), the activation factor is inactive: 1.1.
The entry for `CCOP(=O)(Nc1ccccc1)OCC` is “inactive”.
Take `Cc1cc(C)cc(OP(C)(=O)Nc2cccc(C(F)(F)F)c2)c1` (stereo not given): the activation factor is inactive: 0.9.
For `CP(=O)(OCCOc1ccccc1)OCCOc1ccccc1`, the activation factor result was “inactive”.
Then `CP(=O)(Nc1ccc(Cl)cc1Cl)Oc1ccccc1` (stereo not given), with “inactive”; and `Cc1nc2ccc3ccccc3c2o1.O=[N+]([O-])c1cc([N+](=O)[O-])c(O)c([N+](=O)[O-])c1`, with inactive: 0.5; and `CN(C)CCOC(=O)C(O)(c1ccccc1)C1CCCC1` (stereo not given), with inactive: 1.1.
The entry for `COc1ccc(OP(C)(=O)Nc2ccccn2)cc1` (stereo not given) is “inactive”; for `COc1ccccc1OP(=O)(Nc1ccc(C)cn1)Oc1ccccc1OC` it is “inactive”.
Turning to `Cc1ccc(N/C(=N/P(=O)(N2CCOCC2)N2CCOCC2)N2CCOCC2)cc1`, the activation factor result is “inactive”.
Then `CCc1ccc(OP(C)(=O)O)cc1`, with “inactive”; and `COc1ccccc1OP(C)(=O)Nc1ccc(C)cc1C` (stereo not given), with inactive: 0.9.
With `CP(=O)(Nc1ccccn1)Oc1ccccc1` (stereo not given), the activation factor was inactive: 0.9.
The entry for `O=C(NC(Sc1ccncn1)C(Cl)(Cl)Cl)c1ccccc1` (stereo not given) is “inactive”.
The entry for `Oc1ccccc1CNc1ccccn1` is “inactive”; for `O=[N+]([O-])c1cc([N+](=O)[O-])c(Nc2ccccn2)c([N+](=O)[O-])c1` it is inactive: 0.5; for `Cc1c(NP(C)(=O)Oc2ccc(C(C)C)cc2)c(=O)n(-c2ccccc2)n1C` (stereo not given) it is inactive: 1.2.
Then `CCc1ccc(OP(C)(=O)Nc2cccnc2)cc1` (stereo not given), with inactive: 1.1; and `Cc1ccc(NP(=O)(Oc2ccccc2)Oc2ccccc2)nc1`, with “inactive”.
With `CP(=O)(Oc1ccccc1)N1CCOC1=O` (stereo not given), the activation factor result was “inactive”.
In the case of `COc1ccccc1OP(C)(=O)Nc1c(C)n(C)n(-c2ccccc2)c1=O` (stereo not given), the activation factor entry was “inactive”.
Then `CC(=O)N1C2C3N(C(C)=O)C1C1N(C(C)=O)C(C(N1C(C)=O)N3C(C)=O)N2C(C)=O`, with “inactive”; and `COc1ccc(OP(C)(=O)Nc2ccc(Br)cc2)cc1` (stereo not given), with “inactive”; and `CCN(CC)CC(O)COC(=O)C(O)(c1ccccc1)C1CCCCC1` (stereo not given), with “inactive”.
Regarding `CC1CCN(C(=O)Oc2c(Cl)cc(Cl)c3cccnc23)CC1`, the activation factor entry is “inactive”.
The entry for `CN(C)C(=O)OCCc1n(C)cc[n+]1C` is “inactive”.
Consider `CN(C)C(=O)c1c([N+](=O)[O-])cc([N+](=O)[O-])cc1[N+](=O)[O-]`, for which the activation factor is inactive: 0.9.
Then `CP(=O)(Nc1ccc(Cl)cc1)Oc1ccc(F)cc1` (stereo not given), with inactive: 0.9; and `CCN(/C(=N/P(=O)(N1CCOCC1)N1CCOCC1)N1CCOCC1)c1ccc(OC)cc1`, with “inactive”; and `CC(C)(C)c1ccc(OP(C)(=O)O)cc1`, with “inactive”.
As for `COc1ccccc1OP(C)(=O)Nc1ccccc1Br` (stereo not given), the activation factor was inactive: 1.1.
Then `CP(=O)(OC12CC3CC(CC(C3)C1)C2)OC12CC3CC(CC(C3)C1)C2`, with “inactive”; and `CCOC(=O)c1ccc(NP(C)(=O)Oc2ccc(Cl)cc2)cc1` (stereo not given), with inactive: 0.9.

The values above are taken from PubChem BioAssay AID1214 (Sanford-Burnham Center for Chemical Genomics, 2008).
